The results in this text go back to US8268969B2, “Globo H and related anti-cancer vaccines with novel glycolipid adjuvants” (Academia Sinica, priority 2009, dated 2012).

In the experiment the test system is anti-Globo H, anti-Gb5, anti-SSEA-4 and anti-Gb4 antibodies. Briefly: Mouse immunization i.m. with GH-DT or GH-BV with or without glycolipid adjuvants, sera on glycan microarray.

On to `CCCCCCCCCCCCCC[C@@H](O)[C@@H](O)[C@H](CO[C@H]1O[C@H](CO)[C@H](O)[C@H](O)[C@H]1O)NC(=O)CCCCCCCCCCc1ccc(F)cc1` [7DW8-5], for which, under “Balb/c, i.m., 1.6 μg GH-DT with 2 μg glycolipid, FIG. 5”, the “adjuvant cooperation with GH-DT to induce mouse immune response” value is “cooperated well with GH-DT to induce mouse immune response”.

`CCCCCCCCCCCCCC[C@@H](O)[C@@H](O)[C@H](CO[C@H]1OC(CO)[C@H](O)C(O)C1O)NC(=O)CCCCCCCCCCc1ccc(Oc2ccc(F)cc2)cc1` (some centres unmarked) [C34]: the “adjuvant effectiveness with GH-DT for IgG against Globo H, Gb5, SSEA-4 and Gb4” value (sera two weeks after 3rd vaccination, FIG. 6) is “appears to be the most effective glycolipid adjuvant”.
